Values of other authors, collected in patent EP1079826B1, “USE OF INDIGOID BISINDOLE DERIVATIVES FOR THE MANUFACTURE OF A MEDICAMENT TO INHIBIT CYCLIN DEPENDENT KINASES” (CNRS, Centre National de la Recherche Scientifique, priority 1998, dated 1999).

Chains of the proteins cited; added tags and fusions are not shown.
UniProt P11802, whole entry, species assumed: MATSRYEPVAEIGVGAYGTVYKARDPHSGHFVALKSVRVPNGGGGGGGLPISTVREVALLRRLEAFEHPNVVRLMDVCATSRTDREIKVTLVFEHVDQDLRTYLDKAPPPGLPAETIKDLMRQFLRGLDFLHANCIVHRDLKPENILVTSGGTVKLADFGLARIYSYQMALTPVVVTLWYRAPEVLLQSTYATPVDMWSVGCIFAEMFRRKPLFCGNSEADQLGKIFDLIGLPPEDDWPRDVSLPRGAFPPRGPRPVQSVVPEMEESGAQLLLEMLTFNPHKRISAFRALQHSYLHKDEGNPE

Molecular target: CDK4 (Homo sapiens, UniProt P11802)
Conditions: read-out: IC50 CDK4; Table 1, known inhibitors; cited from earlier work

SMILES: Cn1cnc2c(NCc3ccccc3)nc(NCCO)nc21 [Olomoucin, olomoucine]
- IC50: > 1 mM
